Target: Nitric oxide synthase 1 (Homo sapiens, UniProt P29475)
Test: Inhibition of human recombinant nNOS expressed in Sf9 cells assessed as conversion of [3H]-L-arginine to [3H]-L-citrulline by radiometric method

Protein sequences, listed by entry. Tags and fused reporters are not part of them.
UniProt P29475, whole entry: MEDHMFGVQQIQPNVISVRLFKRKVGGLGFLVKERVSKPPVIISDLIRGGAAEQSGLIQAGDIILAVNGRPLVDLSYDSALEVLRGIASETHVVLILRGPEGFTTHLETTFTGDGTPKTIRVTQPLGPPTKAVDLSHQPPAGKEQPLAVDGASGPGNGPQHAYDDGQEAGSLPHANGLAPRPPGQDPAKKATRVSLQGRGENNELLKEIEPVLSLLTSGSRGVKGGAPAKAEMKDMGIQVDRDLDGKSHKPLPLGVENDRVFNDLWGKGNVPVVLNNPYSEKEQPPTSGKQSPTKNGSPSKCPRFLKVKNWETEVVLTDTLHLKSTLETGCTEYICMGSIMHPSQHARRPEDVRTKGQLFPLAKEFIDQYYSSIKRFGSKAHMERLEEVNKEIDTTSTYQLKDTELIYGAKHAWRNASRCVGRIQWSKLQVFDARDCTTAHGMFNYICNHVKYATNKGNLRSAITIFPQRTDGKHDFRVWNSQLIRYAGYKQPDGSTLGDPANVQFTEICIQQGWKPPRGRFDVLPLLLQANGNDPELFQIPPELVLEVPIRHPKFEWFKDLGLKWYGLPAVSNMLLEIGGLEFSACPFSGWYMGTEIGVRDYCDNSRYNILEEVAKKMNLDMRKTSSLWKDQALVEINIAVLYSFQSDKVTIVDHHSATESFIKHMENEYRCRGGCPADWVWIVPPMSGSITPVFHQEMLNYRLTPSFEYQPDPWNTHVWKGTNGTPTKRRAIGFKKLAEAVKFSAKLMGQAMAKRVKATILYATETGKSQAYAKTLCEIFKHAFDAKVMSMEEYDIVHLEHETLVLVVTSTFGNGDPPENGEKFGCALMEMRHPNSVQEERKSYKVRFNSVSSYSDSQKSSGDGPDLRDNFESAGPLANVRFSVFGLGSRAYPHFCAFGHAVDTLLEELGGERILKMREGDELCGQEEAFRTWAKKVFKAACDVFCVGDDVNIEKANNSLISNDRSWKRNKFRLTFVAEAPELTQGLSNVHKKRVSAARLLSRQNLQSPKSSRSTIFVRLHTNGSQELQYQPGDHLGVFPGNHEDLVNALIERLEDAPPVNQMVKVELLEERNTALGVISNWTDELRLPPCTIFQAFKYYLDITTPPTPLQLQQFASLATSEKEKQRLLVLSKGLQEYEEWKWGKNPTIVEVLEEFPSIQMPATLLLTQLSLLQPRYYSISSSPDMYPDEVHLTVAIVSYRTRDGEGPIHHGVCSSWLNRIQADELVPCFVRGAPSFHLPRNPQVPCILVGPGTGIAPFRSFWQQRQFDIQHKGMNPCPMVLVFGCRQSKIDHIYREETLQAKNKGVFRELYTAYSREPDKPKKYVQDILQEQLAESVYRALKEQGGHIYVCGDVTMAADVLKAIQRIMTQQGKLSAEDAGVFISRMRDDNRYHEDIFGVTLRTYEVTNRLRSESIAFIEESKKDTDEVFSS

Structure (SMILES): CN1CCC[C@H]1CCn1ccc2cc(NC(=N)c3cccs3)ccc21
- IC50: 20 nM

Structure (SMILES): CN1CCC[C@@H]1CCn1ccc2cc(NC(=N)c3cccs3)ccc21
- IC50: 60 nM

From ChEMBL document CHEMBL1821699, “1,5-Disubstituted indole derivatives as selective human neuronal nitric oxide synthase inhibitors” (Bioorg Med Chem Lett, 2011)
